We go through 24 substances from US20160177276A1 (Merck KGaA, published 2016).

The target of assay [1] is CD47 (human) (UniProt Q08722). Nature of the assay: flow cytometry on CD47-high (CD47-transfected) CHO cells. A general note: A flow cytometer gives signals particle by particle.
Assay [2] deals with CD47 (human) (UniProt Q08722). Nature of the assay: flow cytometry on human erythrocytes, 50 µg/ml; negative control.
Assay [3] deals with CD47 (human) (UniProt Q08722). Nature of the assay: flow cytometry on CD47-low human Ramos cells.
Assay [4] concerns the target CD47 (human) (UniProt Q08722). Nature of the assay: flow cytometry on human erythrocytes, 50 µg/ml.
The target in assay [5] is CD47 (human) (UniProt Q08722). Nature of the assay: flow cytometry on human erythrocytes, 50 µg/ml; the table prints 52%.

Turning to “anti-EGFR-huIgG1-SIRPαV2(E47Y) (other; other documents disagree on this pair)”, in the assay with CD47 (human) [1], the EC50 (in general, the concentration at which the effect is half-maximal) came out at 10 nM. That is a double-digit nanomolar value.

In the assay with CD47 (human) [2], “anti-EGFR huIgG1 (antibody; other documents disagree on this pair)” yielded a % RBC MFI of anti-CD47 of 1% and an RBC MFI of 0.3.

For “anti-EGFR-huIgG1-SIRPαV2(I31R) (other; other documents disagree on this pair)”, the EC50 in the assay with CD47 (human) [3] was found to be 14 nM. Also, in the assay with CD47 (human) [4], the % RBC MFI of anti-CD47 was found to be 12% and the RBC MFI came out at 2.9. The substance also displayed an EC50 in the assay with CD47 (human) [1] of 2 nM.

In the assay with CD47 (human) [1], “anti-EGFR-huIgG1-SIRPαV2(S66H) (other; other documents disagree on this pair)” registered an EC50 of 25 nM.

The substance “anti-EGFR-huIgG1-SIRPαV2(M72R) (other; other documents disagree on this pair)” displayed an EC50 with CD47 (human) [3] of 84 nM. In the assay with CD47 (human) [4], this substance had a % RBC MFI of anti-CD47 of 1% and an RBC MFI of 0.3. The concentration for a half-maximal effect (EC50) with CD47 (human) [1] was determined as 8 nM.

Take “anti-EGFR-huIgG1-SIRPαV2(Q37W) (other; other documents disagree on this pair)”: the EC50 in the assay with CD47 (human) [3] came to 3 nM. In the assay with CD47 (human) [4], this substance came in with a % RBC MFI of anti-CD47 of 4% and an RBC MFI of 1. In the assay with CD47 (human) [1], this substance returned an EC50 of 2 nM.

In turn, “anti-EGFR-huIgG1-SIRPαV2(Q37H) (other; other documents disagree on this pair)” gave an EC50 in the assay with CD47 (human) [3] of 71 nM. In the assay with CD47 (human) [4], this substance showed a % RBC MFI of anti-CD47 of 2% and an RBC MFI of 0.3. Also, the EC50 in the assay with CD47 (human) [1] is 6 nM.

In the case of “anti-EGFR-huIgG1-SIRPαV2(E54P) (other; other documents disagree on this pair)”, the figures for the EC50 with CD47 (human) [3] and with CD47 (human) [1] were 81 nM and 8 nM, respectively. In addition, the % RBC MFI of anti-CD47 with CD47 (human) [4] is 1%. For the same substance, the RBC MFI with CD47 (human) [4] was determined as 0.3.

“anti-EGFR-huIgG1-SIRPαV2(H56Y) (other; other documents disagree on this pair)” came in with an EC50 with CD47 (human) [1] of 12 nM.

“anti-EGFR-huIgG1-SIRPαV2(1D4) (other; other documents disagree on this pair)”: the EC50 with CD47 (human) [3] is 2 nM. In the assay with CD47 (human) [4], this substance returned a % RBC MFI of anti-CD47 of 52% and an RBC MFI of 12.1. Besides, in the assay with CD47 (human) [1], the EC50 turned out to be 3 nM. The substance also had a % of anti-CD47 binding to erythrocytes in the assay with CD47 (human) [5] of 53%.

For “anti-EGFR-huIgG1-SIRPαV2(H56P) (other; other documents disagree on this pair)”, the EC50 with CD47 (human) [3] was determined as 13 nM; with CD47 (human) [1] it was 2 nM. Also, the % RBC MFI of anti-CD47 in the assay with CD47 (human) [4] stood at 4%. Further, the RBC MFI in the assay with CD47 (human) [4] is 0.9.

As to “anti-EGFR-huIgG1-SIRPαV2(S66E) (other; other documents disagree on this pair)”, the EC50 with CD47 (human) [1] was 33 nM.

For the substance “anti-EGFR-huIgG1-SIRPαV2 AS1 (L4V/V27I/I31T/K53R/S66T/K68R/F94L) (other; other documents disagree on this pair)”, the EC50 with CD47 (human) [3] worked out at 3 nM; in the assay with CD47 (human) [1], 7 nM. The substance also gave a % RBC MFI of anti-CD47 with CD47 (human) [4] of 37%. The same substance came in with an RBC MFI in the assay with CD47 (human) [4] of 8.7.

Consider “anti-EGFR-huIgG1-SIRPαV2(V27I) (other; other documents disagree on this pair)”, for which, in the assay with CD47 (human) [3], the EC50 came to 2 nM. Moreover, in the assay with CD47 (human) [4], the % RBC MFI of anti-CD47 is 3% and the RBC MFI is 0.7. Moreover, the EC50 in the assay with CD47 (human) [1] came to 2 nM.

Substance “anti-EGFR-huIgG1-SIRPαV2(M72N) (other; other documents disagree on this pair)” gave an EC50 with CD47 (human) [1] of 40 nM.

Substance “anti-EGFR-huIgG1-(G4S)4-SIRPαV2 (other; other documents disagree on this pair)” registered an EC50 in the assay with CD47 (human) [3] of 85 nM. For the same substance, in the assay with CD47 (human) [4], the % RBC MFI of anti-CD47 is 2% and the RBC MFI stood at 0.4. Besides, in the assay with CD47 (human) [1], the EC50 worked out at 8 nM.

With “anti-EGFR-huIgG1-SIRPαV2(S66Q) (other; other documents disagree on this pair)”, the EC50 in the assay with CD47 (human) [3] stood at 2 nM. In the assay with CD47 (human) [4], this substance returned a % RBC MFI of anti-CD47 of 21% and an RBC MFI of 4.9. This substance also yielded an EC50 in the assay with CD47 (human) [1] of 5 nM.

The substance “anti-EGFR-huIgG1-SIRPαV2(I31T) (other; other documents disagree on this pair)” yielded an EC50 with CD47 (human) [3] of 13 nM. Moreover, in the assay with CD47 (human) [4], the % RBC MFI of anti-CD47 is 2% and the RBC MFI is 0.5. In the assay with CD47 (human) [1], this substance yielded an EC50 of 4 nM.

In the assay with CD47 (human) [1], “anti-EGFR-huIgG1-SIRPαV2(V92N) (other; other documents disagree on this pair)” showed an EC50 of 72 nM. This lies in the double-digit nanomolar range.

Turning to “anti-EGFR-huIgG1-SIRPαV2(P35G) (other; other documents disagree on this pair)”, the EC50 with CD47 (human) [1] came to 18 nM.

Consider “anti-EGFR-huIgG1-SIRPαV2(Q37V) (other; other documents disagree on this pair)”, for which the EC50 with CD47 (human) [1] turned out to be 13 nM.

“anti-EGFR-huIgG1-SIRPαV2 AS2 (K53R/S66T/K68R) (other; other documents disagree on this pair)”: the EC50 worked out at 2 nM with CD47 (human) [3] and 3 nM with CD47 (human) [1]. Also, in the assay with CD47 (human) [4], the % RBC MFI of anti-CD47 is 12%. The substance further had an RBC MFI with CD47 (human) [4] of 2.9.

“anti-EGFR-huIgG1-SIRPαV2(V6I) (other; other documents disagree on this pair)”: the EC50 turned out to be 9 nM with CD47 (human) [3] and 3 nM with CD47 (human) [1]. The same substance came in with a % RBC MFI of anti-CD47 in the assay with CD47 (human) [4] of 1%. The substance also had an RBC MFI with CD47 (human) [4] of 0.4.

In turn, “anti-EGFR-huIgG1-SIRPαV2(K68H) (other; other documents disagree on this pair)” had an EC50 with CD47 (human) [1] of 56 nM. In other words, the double-digit nanomolar range.
